# From patent publication EP4825425A2, “IMPROVED DOSAGE REGIMEN FOR THE ADMINISTRATION OF INHALED NITRIC OXIDE (INO) IN THE TREATMENT OF HYPOXEMIA” (dated 2026)
# Columns and labels:
# [1] = test system: PAH subjects; assay: 6-minute walk test (6MWT) with SpO2 measurement, protocol Pulse-PAH-201, pulsed iNO added to LTOT; conditions: for Improvement in SpO2 Nadir (5% or more) / Improvement in SpO2 Nadir (2% or more) / Improvement in SpO2 Nadir / Drop or no change in SpO2 Nadir: share of PAH subjects, during 6MWT; for Improvement in SpO2 Nadir (5% or more): placebo 10%; for Improvement in SpO2 Nadir (2% or more): placebo 22%; for Improvement in SpO2 Nadir: placebo 34%; for Drop or no change in SpO2 Nadir: placebo 66%
# Procedure: (§1) Patients suffering from pulmonary hypertension associated with idiopathic pulmonary fibrosis (PH-IPF), and patients diagnosed pulmonary arterial hypertension (PAH) as WHO Diagnostic Group 1 were tested in this study example. The patients included in this study were all on long term oxygen therapy (LTOT) and have been on LTOT for at least 3 months and for at least 10 hours per day. The results of this study, and the SpO2 measurements specifically, were derived from a clinical study measuring the effects of iNO on functional respiratory imaging parameters in certain patient populations.
# The PAH patients were tested according to the following procedure per protocol Pulse-PAH-201: A baseline measurement of SpO2 was taken within 24 hours of the start of the study. A 6-minute walk test (6MWT) was given, and SpO2 measurements were taken at baseline and at the end of the 6MWT. Following baseline measurements, the subjects were put on either 25 mcg/kgIBW/hr or 75 mcg/kgIBW/hr of iNO for 16 weeks, along with their LTOT they were already receiving. 6MWT and SpO2 measurements were taken at 4 weeks, 8 weeks, 12 weeks, and 16 weeks.
# [2] = test system: PH-IPF patients; assay: 6-minute walk test (6MWT) with SpO2 measurement, protocol Pulses-COPD-006 Part 2, pulsed iNO added to LTOT; conditions: for 6MWD (meters), 4 Weeks / Distance Saturation Product [DSP] (meter%), 4 Weeks / Oxygen desaturation during 6MWT (% SpO2), 4 Weeks / Nadir SpO2 (% SpO2), 4 Weeks / 6MWD, Meters improvement at 4 weeks / Distance Saturation Product [DSP], Improvement at 4 weeks (meter%) / Nadir SpO2, Percent Improvement at 4 weeks / Oxygen desaturation during 6MWT, Percent Improvement at 4 weeks: one PH-IPF patient; for Distance Saturation Product [DSP] (meter%), 4 Weeks: 6MWD multiplied by nadir SpO2; for Nadir SpO2 (% SpO2), 4 Weeks: during 6MWT; for 6MWD, Meters improvement at 4 weeks / Distance Saturation Product [DSP], Improvement at 4 weeks (meter%) / Nadir SpO2, Percent Improvement at 4 weeks / Oxygen desaturation during 6MWT, Percent Improvement at 4 weeks: versus baseline
# Procedure: as §1
# PH-IPF patients were tested according to the following procedure per protocol Pulses-COPD-006 Part 2: A baseline measurement of SpO2 was taken within 24 hours of the start of the study. A 6-minute walk test (6MWT) was given, and SpO2 measurements were taken every minute during the 6MWT. Following baseline measurements, the subjects were put on either 30 mcg/kgIBW/hr or 75 mcg/kgIBW/hr of iNO for 4 weeks, along with their LTOT they were already receiving. 6MWT and SpO2 measurements were taken again at 2 weeks and 4 weeks, and iNO was then discontinued. The 6MWT and SpO2 measurements were taken again at 6 weeks after 2 weeks of only the LTOT.
# In addition, the level of oxygen desaturation during exercise improved for both subjects, representing an average improvement of 28.5%.
# The DSP is calculated by multiplying the distance (6MWD) by the nadir in the oxygen saturation during the 6MWT. […]
# [3] = average of 2 PH-IPF patients (one iNO75, one iNO30), 4 weeks versus baseline
smiles,measurement,setting,value
[N]=O,improvement in SpO2 Nadir during the 6MWT after 16 weeks of treatment (in words),"[1]; PAH subjects, iNO75 cohort (75mcg/kgIBW/hr)",All test subjects showed improvement
same,share of subjects showing improvement of 5% or more in SpO2 Nadir (in words),"[1]; PAH subjects, iNO75 cohort (75mcg/kgIBW/hr), 16 weeks",half
same,Improvement in SpO2 Nadir (5% or more),"[1]; iNO 25mcg/kgIBW/hr, 16 weeks",10%
same,Improvement in SpO2 Nadir (2% or more),"[1]; iNO 25mcg/kgIBW/hr, 16 weeks",50%
same,Improvement in SpO2 Nadir,"[1]; iNO 25mcg/kgIBW/hr, 16 weeks",60%
same,Drop or no change in SpO2 Nadir,"[1]; iNO 25mcg/kgIBW/hr, 16 weeks",40%
same,Improvement in SpO2 Nadir (5% or more),"[1]; iNO 75mcg/kgIBW/hr, 16 weeks",50%
same,Improvement in SpO2 Nadir (2% or more),"[1]; iNO 75mcg/kgIBW/hr, 16 weeks",88%
same,Improvement in SpO2 Nadir,"[1]; iNO 75mcg/kgIBW/hr, 16 weeks",100%
same,Drop or no change in SpO2 Nadir,"[1]; iNO 75mcg/kgIBW/hr, 16 weeks",0%
same,average improvement in the SpO2 Nadir,[2]; [3],5.5%
same,average improvement of the level of oxygen desaturation during exercise,[2]; [3],28.5%
same,average DSP improvement,"[2]; average of 2 PH-IPF patients (one iNO75, one iNO30), 4 weeks versus baseline with LTOT alone",78.1 m%
same,"6MWD (meters), 4 Weeks","[2]; iNO 30mcg/kgIBW/hr, 12.8 hrs/day, baseline 510 m",560 m
same,"Distance Saturation Product [DSP] (meter%), 4 Weeks","[2]; iNO 30mcg/kgIBW/hr, baseline 423.3 m%",498.4 m%
same,"Oxygen desaturation during 6MWT (% SpO2), 4 Weeks","[2]; iNO 30mcg/kgIBW/hr, baseline 15%",11%
same,"Nadir SpO2 (% SpO2), 4 Weeks","[2]; iNO 30mcg/kgIBW/hr, baseline 83%",89%
same,"6MWD, Meters improvement at 4 weeks",[2]; iNO 30mcg/kgIBW/hr,50 m
same,"Distance Saturation Product [DSP], Improvement at 4 weeks (meter%)",[2]; iNO 30mcg/kgIBW/hr,75.1 m%
same,"Nadir SpO2, Percent Improvement at 4 weeks",[2]; iNO 30mcg/kgIBW/hr,7%
same,"Oxygen desaturation during 6MWT, Percent Improvement at 4 weeks",[2]; iNO 30mcg/kgIBW/hr,27%
same,"6MWD (meters), 4 Weeks","[2]; iNO 75 mcg/kgIBW/hr, 23.8 hrs/day, baseline 98 m",197 m
same,"Distance Saturation Product [DSP] (meter%), 4 Weeks","[2]; iNO 75 mcg/kgIBW/hr, baseline 74.5 m%",155.6 m%
same,"Oxygen desaturation during 6MWT (% SpO2), 4 Weeks","[2]; iNO 75 mcg/kgIBW/hr, baseline 23%",16%
same,"Nadir SpO2 (% SpO2), 4 Weeks","[2]; iNO 75 mcg/kgIBW/hr, baseline 76%",79%
same,"6MWD, Meters improvement at 4 weeks",[2]; iNO 75 mcg/kgIBW/hr,99 m
same,"Distance Saturation Product [DSP], Improvement at 4 weeks (meter%)",[2]; iNO 75 mcg/kgIBW/hr,81.1 m%
same,"Nadir SpO2, Percent Improvement at 4 weeks",[2]; iNO 75 mcg/kgIBW/hr,4%
same,"Oxygen desaturation during 6MWT, Percent Improvement at 4 weeks",[2]; iNO 75 mcg/kgIBW/hr,30%
